## Apparent affinities of Ab-14 variants for a coronavirus HR2 peptide

Data: MIT Lincoln Laboratory AlphaSeq set, Engelhart et al. 2022, doi:10.1038/s41597-022-01779-4, as distributed in FLAb.

Target peptide (SARS-CoV-2 spike, HR2 region): PDVDLGDISGINAS

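The library (AAYL50) carries one to three amino acid substitutions per variant, with no insertions or deletions. The scFvs were displayed on barcoded MATa yeast, the peptide on MATalpha yeast. After mating in shaken culture at 30 °C for 16 h, diploids were selected and their barcode pairs sequenced. The ratio of observed to expected reads was calibrated, replicate by replicate, on BCL2-family standards whose Kd was known from biolayer interferometry. There are three technical replicates.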

Each scFv is VH, three GGGGS repeats, VL, as in the parent Ab-14, and differs from it in the CDRs of the light chain only.
VH: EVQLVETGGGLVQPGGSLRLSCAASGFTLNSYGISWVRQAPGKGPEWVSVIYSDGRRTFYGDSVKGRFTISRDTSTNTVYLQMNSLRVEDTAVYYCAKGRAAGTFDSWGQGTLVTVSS
VL: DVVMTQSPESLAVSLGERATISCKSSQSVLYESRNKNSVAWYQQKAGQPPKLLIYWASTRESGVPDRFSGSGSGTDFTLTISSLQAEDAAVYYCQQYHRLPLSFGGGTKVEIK

Variants are written as CDR1, CDR2 and CDR3 of the light chain (limits as in the source). Parent: KSSQSVLYESRNKNSVA, WASTRES, QQYHRLPLS.
The Kd shown is the geometric mean over detected replicates; a lower Kd is a better binder.
A pair that was not seen in any replicate is written "no signal"; this usually means weak binding, but a binder can also be missed.
As a blank, each scFv also met three strains without target: over library AAYL50, 18% of these pairings were detected, typically at 15 µM and seldom below 970 nM.

CDR-L1,CDR-L2,CDR-L3,Kd,seen in
KSSQMILYESRNKNSVA,WASTRES,QQYHRLPLW,23 nM,3/3
KSSQSVLYESRWKNSVA,WAGTRES,QQYHRLPLL,no signal,0/3
KSSQSVLFETRNKNSVW,WASTRES,QQYHRLPLS,no signal,0/3
KSSQSVLYESRNKTPVA,WASTRYS,QQYHRLPLS,130 nM,3/3
KSSHSVLYESRVKNPVA,WASTRES,QQYHRLPLS,13 nM,3/3
KSSQSVLYEERNKNSVA,WAGTRES,QQYHRLPLG,1.0 µM,3/3
KSSQSVGYESRNKNSVA,WASTRES,QQYHRLPQE,no signal,0/3
KSSQSVLYESRNKNSVA,WKSTLES,QQYHRLPIS,no signal,0/3
KSSQSVLYESRNANSVF,WASTRES,QQYHRLPSS,100 µM,2/3
DSSQSVLYESRDKNSVA,WAFTRES,QQYHRLPLS,no signal,0/3
KSSNSVLYESRNKPSVA,LASTRES,QQYHRLPLS,1.0 µM,3/3
KSSQSVLYESRNKASVA,WASDRES,FQYHRLPLS,no signal,0/3
KSSQYVLYESRNKNSVA,WASTRES,QQYMRYPLS,990 nM,3/3
KSSQSFLYESRNYNSVA,WASTRES,QQYHMLPLS,no signal,0/3
KSSQSHLYESRQKNSYA,WASTRES,QQYHRLPLS,no signal,0/3
KSSQSVLYEARNKNSVA,DASTLES,QQYHRLPLS,860 pM,3/3
KSSQSVLYESACKNSVA,WASTRES,QDYHRLPLS,20 nM,3/3
KSQQSVLYESRNKNSVA,WASTRES,QQYHSLPNS,no signal,0/3
KSSQSVFYESRWKNSVA,WASTRES,QQYHRLPLS,70 nM,3/3
ASSQSVLYESRNKNSVA,WASDRES,QQYHRLPNS,960 nM,3/3
KASQSVLYESRNKNSVA,WAWTRES,QQIHRLPLS,5.1 µM,2/3
KSSQNVLYESRMKNSVA,WASTRES,QQYHRLPLS,6.3 nM,3/3
KSSQSVLYEVRNKNSVA,WASTRES,WQYHRLLLS,350 nM,3/3
KSSQDVLYESRNKNSVA,WCSTRES,QQYHRLPES,920 pM,3/3
KSSQSTLYESRNKNWVA,WASTRWS,QQYHRLPLS,7.4 µM,1/3
KSSQSVLYESCNKNSVA,WASYRES,QQYHRLPGS,97 µM,1/3
KSSQSILYESRNKNSVA,WASTRES,QDYHHLPLS,120 nM,3/3
KSSQWILYESRNKNSVA,WASKRES,QQYHRLPLS,1.9 µM,3/3
KSSQILLAESRNKNSVA,WASTRES,QQYHRLPLS,300 nM,3/3
KSFQSVLYESRHKNSVA,WASFRES,QQYHRLPLS,9.1 µM,3/3
KSSQSVLWESRNKNSVA,WASTIES,QRYHRLPLS,no signal,0/3
KLSQSVLYLSRNKNSVA,WASTRAS,QQYHRLPLS,950 pM,3/3
WESQSVLYESRNKNSVA,WASTRET,QQYHRLPLS,580 nM,1/3
KSSQSVLYPSRNSNSVA,WASTRES,QQYDRLPLS,13 nM,3/3
KSSLSVLYESRNKNSVA,WDSTRES,QQHHRLPLS,170 nM,3/3
KSSFSVLYESRNKNSCA,WASTRES,QQYHRLPLT,no signal,0/3
KSSQNVLYESRNKNSVA,WASLRES,QQYHRHPLS,20 nM,3/3
KSSQSVLYESRNWNSVA,WVSTRES,QQYHRHPLS,no signal,0/3
WSSQSVLYESRNKNSVA,WAETRES,QQYHLLPLS,no signal,0/3
KSSQSVLDESRNKNSVA,WASTREV,LQYHRLPLS,no signal,0/3
KSSQSVLYESRNKASVA,WASTRES,QQYHLLPLN,no signal,0/3
KSSQSVLYESRNKNSVA,WASSRES,QQYMRLYLS,2.4 µM,3/3
KSSQSVCYHSRNKNSVA,WASTRES,QQYHRLPLH,120 nM,3/3
KSSQDVLKESRNKNSVA,WASTRES,QQYPRLPLS,14 nM,3/3
KSSQSVLYESRNKNSVA,WASTRES,QQYGRLPTN,no signal,0/3
FSSQSVLYESRNKNSQA,WASTRES,QQYHRLPRS,92 µM,2/3
KSSQSVLYESHNKNSVA,WLSTREC,QQYHRLPLS,no signal,0/3
KSSQSVIYESRNKNAVA,WASTKES,QQYHRLPLS,89 nM,3/3
KSSQSVLYESRNKNSVA,WASTRES,FQYHTLPLP,220 µM,1/3
HSYQSVLYMSRNKNSVA,WASTRES,QQYHRLPLS,1.2 µM,3/3
KSSQSVLYESCNKTSVA,WASTRES,QQYHRTPLS,180 µM,2/3
KSSQSRLYESRNKNSVA,CASTRES,QQYHGLPLS,760 nM,3/3
KSSQSVLYESRQKTSVA,WASTRES,QQYHRLWLS,150 nM,3/3
KSSQDVLYESRNKNSWA,WAKTRES,QQYHRLPLS,no signal,0/3
KKSQSVLYESRGKNSVA,WASTRES,QQYHRLPLR,no signal,0/3
KSSQSVLYVSRNKNSVA,WASTREV,QQYHRLPLS,780 nM,3/3
KSSQSVLYESRNKNAVA,WASTRES,QYPHRLPLS,no signal,0/3
HSYQSVLYESRNDNSVA,WASTRES,QQYHRLPLS,38 nM,3/3
KSHQSSLYECRNKNSVA,WASTRES,QQYHRLPLS,1.4 µM,3/3
KSTQSVMYESRNKNSVN,WASTRES,QQYHRLPLS,no signal,0/3
KSSQSVLYESREKNSVA,WAQTRES,QQYHRLPLS,26 nM,3/3
GSSQSVLYESRNKNSVA,LFSTRES,QQYHRLPLS,no signal,0/3
KSSKSVLYESRNKNSVA,WASTRES,LQYHRTPLS,no signal,0/3
KSSQSVLYESRNKNSVA,WASTLEF,QQYHRLDLS,800 nM,3/3
KSSQLVLYESRNKNSVA,WASTKES,QQYHRLPLS,120 nM,3/3
KSSQSVLYESKAKNSVA,WASTREF,QQYHRLPLS,58 µM,1/3
KSSISVLYGSRNKGSVA,WASTRES,QQYHRLPLS,12 nM,3/3
KSSQSVLYEIRNKNSVA,WASTRES,QQFHRLPLS,no signal,0/3
KSSQSVLWESRNKNSVA,WADTRES,QQYHRLPLD,5.7 nM,3/3
KSSQSVLYESRNKESVA,WAETRES,QQYHRLPLS,47 nM,3/3
KSSQSVLYESRNKNSVV,WSSTRES,QRYHRLPLS,no signal,0/3
NKSQSVLYESRNCNSVA,WASTRES,QQYHRLPLS,no signal,0/3